Article PMC9604775, “Bioactive Peptides from Skipjack Tuna Cardiac Arterial Bulbs: Preparation, Identification, Antioxidant Activity, and Stability against Thermal, pH, and Simulated Gastrointestinal Digestion Treatments” (Marine Drugs, 2022)

Experiment: Stability to simulated gastrointestinal digestion (DPPH· scavenging activity)
Format: in vitro ADME
Settings: two-stage model: pepsin 120 min then trypsin 120 min; 0 to 240 min; peptide 2.0 mg/mL; read-out DPPH· scavenging activity
Procedure: The stability of TCP1 to TCP11 from tuna cardiac arterial bulbs was determined according to the previous method with a slight modification. The DPPH· scavenging activity (%) of TCP1 to TCP11 at 2.0 mg/mL were measured at the set conditions to evaluate their stability.
The thermostability of TCP1 to TCP11 at 20, 40, 60, 80, or 100 °C for 60 min was analyzed in water bath. The influences of pH values of 3, 5, 7, 9, or 11 were employed to estimate the acid and alkali stability properties of TCP1 to TCP11 at 25 °C, and the detecting time was set to 60, 120, and 180 min, respectively. The influence of simulate GI digestion on the stability of TCP1 to TCP11 was evaluated by the two-stage digestion model. In short, APs (TCP1 to TCP11) were separately treated with pepsin for 120 min and trypsin for 120 min.

With `NCC(=O)N1CCC[C@H]1C(=O)N[C@@H](CCC(N)=O)C(=O)O` [TCP4, Gly-Pro-Gln] the “Declined percentage of DPPH· scavenging activity after simulated GI digestion” value was 3.22%.
